ChEMBL document CHEMBL4118094, “Structure-Guided Design and Initial Studies of a Bifunctional MEK/PI3K Inhibitor (ST-168)” (ACS Med Chem Lett, 2017)

The chains behind the UniProt entries cited, without tags or fusion partners.
UniProt P42336, whole entry: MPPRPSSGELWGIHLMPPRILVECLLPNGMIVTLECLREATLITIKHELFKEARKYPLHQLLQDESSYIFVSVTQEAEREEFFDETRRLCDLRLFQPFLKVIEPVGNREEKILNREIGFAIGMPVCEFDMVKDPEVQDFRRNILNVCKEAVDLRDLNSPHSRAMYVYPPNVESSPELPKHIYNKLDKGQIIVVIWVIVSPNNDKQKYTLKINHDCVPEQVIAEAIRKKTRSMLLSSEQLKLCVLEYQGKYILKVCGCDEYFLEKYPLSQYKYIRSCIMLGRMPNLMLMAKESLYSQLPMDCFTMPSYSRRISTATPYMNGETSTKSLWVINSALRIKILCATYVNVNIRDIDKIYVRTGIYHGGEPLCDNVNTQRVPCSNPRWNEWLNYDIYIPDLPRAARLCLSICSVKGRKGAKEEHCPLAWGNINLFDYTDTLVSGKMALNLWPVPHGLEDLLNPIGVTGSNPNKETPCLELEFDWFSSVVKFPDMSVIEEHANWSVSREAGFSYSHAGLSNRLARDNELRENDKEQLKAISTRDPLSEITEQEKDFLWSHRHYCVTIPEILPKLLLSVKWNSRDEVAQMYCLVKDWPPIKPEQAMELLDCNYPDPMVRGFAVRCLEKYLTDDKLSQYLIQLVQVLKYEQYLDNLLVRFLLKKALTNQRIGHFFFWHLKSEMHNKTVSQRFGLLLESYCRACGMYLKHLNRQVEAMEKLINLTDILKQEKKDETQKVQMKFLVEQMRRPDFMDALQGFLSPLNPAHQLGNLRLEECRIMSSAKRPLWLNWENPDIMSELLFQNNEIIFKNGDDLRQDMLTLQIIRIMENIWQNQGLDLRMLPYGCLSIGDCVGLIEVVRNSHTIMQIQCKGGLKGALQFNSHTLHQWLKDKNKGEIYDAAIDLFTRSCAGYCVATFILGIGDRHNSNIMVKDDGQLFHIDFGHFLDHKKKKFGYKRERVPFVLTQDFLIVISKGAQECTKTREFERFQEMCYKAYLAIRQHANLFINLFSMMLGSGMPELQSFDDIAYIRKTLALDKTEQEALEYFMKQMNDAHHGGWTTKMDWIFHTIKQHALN

Columns and labels:
[1] = biological target: T1, Phosphatidylinositol 4,5-bisphosphate 3-kinase catalytic subunit delta isoform (Homo sapiens, UniProt O00329); assay: Inhibition of PI3K delta (unknown origin)
T1 sequence (O00329 whole entry): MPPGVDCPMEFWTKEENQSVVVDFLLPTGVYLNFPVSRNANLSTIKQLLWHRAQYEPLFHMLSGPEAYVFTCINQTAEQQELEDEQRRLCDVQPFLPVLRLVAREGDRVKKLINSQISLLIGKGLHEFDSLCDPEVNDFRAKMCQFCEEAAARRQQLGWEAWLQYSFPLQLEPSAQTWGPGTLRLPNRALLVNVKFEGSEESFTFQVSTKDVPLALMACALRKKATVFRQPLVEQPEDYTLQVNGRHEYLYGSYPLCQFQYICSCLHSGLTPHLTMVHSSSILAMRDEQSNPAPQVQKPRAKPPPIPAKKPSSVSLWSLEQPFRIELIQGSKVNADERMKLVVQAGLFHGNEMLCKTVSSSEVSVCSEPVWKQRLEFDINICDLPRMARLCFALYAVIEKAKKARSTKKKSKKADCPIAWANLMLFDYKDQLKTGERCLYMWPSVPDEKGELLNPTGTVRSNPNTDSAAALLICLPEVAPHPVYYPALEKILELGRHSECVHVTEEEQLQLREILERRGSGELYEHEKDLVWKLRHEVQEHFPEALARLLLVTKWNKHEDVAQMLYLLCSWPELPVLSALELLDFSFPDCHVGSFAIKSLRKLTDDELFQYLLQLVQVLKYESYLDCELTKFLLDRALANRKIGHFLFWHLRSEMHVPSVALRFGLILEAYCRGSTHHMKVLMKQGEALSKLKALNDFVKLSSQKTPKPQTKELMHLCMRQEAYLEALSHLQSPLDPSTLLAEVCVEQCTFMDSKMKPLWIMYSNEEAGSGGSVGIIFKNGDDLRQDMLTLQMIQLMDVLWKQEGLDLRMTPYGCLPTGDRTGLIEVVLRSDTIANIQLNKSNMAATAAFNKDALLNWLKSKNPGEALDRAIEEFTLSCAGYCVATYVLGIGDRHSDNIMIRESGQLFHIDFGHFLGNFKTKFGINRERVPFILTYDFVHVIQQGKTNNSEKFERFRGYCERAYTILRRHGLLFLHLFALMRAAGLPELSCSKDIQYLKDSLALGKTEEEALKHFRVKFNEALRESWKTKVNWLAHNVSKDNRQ

[2] = biological target: Phosphatidylinositol 4,5-bisphosphate 3-kinase catalytic subunit alpha isoform (Homo sapiens, UniProt P42336)

With Cc1nc(-c2cn3c(n2)-c2ccc(-c4cnn(C(C)(C)C(N)=O)c4)cc2OCC3)n(C(C)C)n1 [TASELISIB] the IC50 [1] was < 0.7 nM and the IC50 [2] was < 0.7 nM.
